{
  "sequences": {"note": "Protein sequences, listed by entry. Tags and fused reporters are not part of them.", "UniProt Q8BUN5, whole entry, looked up": "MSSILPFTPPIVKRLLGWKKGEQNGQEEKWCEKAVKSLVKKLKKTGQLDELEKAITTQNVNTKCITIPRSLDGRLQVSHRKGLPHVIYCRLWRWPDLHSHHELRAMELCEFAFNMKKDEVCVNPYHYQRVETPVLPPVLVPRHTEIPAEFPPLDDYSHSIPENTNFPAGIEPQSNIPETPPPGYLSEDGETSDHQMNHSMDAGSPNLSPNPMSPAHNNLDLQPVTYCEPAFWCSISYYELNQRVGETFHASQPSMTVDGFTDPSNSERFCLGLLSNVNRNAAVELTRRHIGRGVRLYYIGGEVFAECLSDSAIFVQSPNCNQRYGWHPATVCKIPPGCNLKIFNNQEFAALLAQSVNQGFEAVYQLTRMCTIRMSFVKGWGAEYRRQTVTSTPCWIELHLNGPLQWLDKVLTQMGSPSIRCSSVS"},
  "source": "ChEMBL document CHEMBL5512657",
  "about": "“Design, synthesis and evaluation of a pyrazolo[3,4-d]pyrimidine derivative as a novel and potent TGFβ1R1 inhibitor” (Eur J Med Chem, 2024)",
  "key": {"[1]": {"target": "T1, TGF-beta receptor type-1 (Homo sapiens) (UniProt P36897)", "T1 sequence (whole entry)": "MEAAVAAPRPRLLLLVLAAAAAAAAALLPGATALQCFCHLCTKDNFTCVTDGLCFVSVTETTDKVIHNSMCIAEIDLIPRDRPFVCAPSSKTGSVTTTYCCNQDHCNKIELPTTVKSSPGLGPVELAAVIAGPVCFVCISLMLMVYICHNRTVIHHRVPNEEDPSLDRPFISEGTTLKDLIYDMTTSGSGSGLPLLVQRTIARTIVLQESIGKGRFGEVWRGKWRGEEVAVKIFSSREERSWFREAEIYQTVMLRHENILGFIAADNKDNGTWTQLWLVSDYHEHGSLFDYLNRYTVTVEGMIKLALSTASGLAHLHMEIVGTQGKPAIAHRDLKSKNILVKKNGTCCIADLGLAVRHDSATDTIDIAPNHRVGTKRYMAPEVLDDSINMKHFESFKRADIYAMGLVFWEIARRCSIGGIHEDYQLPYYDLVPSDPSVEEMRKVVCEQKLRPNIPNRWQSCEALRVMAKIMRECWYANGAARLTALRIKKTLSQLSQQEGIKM", "test": "Inhibition of ALK5 (unknown origin) at 25 uM incubated for 2 hrs in presence of ATP by ADP-Glo reagent based luminescence plate reader analysis relative to control"}, "PANC-1": {"tested_on": "PANC-1", "test": "Antitumor activity against human PANC-1 cells xenografted in C57BL/6J mouse model assessed as downregulation of Ki67 expression in tumor at 10 mg/kg, ip administered every other day for 24 days by immunohistochemistry analysis", "type": "functional, organism-based", "conditions": "time 24.0 day"}, "Panc02": {"tested_on": "Panc02", "test": "Antitumor activity against mouse Panc02 cells implanted in C57BL/6J mouse model assessed as downregulation of Ki67 expression in tumor at 10 mg/kg, ip administered every other day for 24 days by immunohistochemistry analysis", "type": "functional, organism-based", "conditions": "time 24.0 day"}, "[2]": {"target": "Mothers against decapentaplegic homolog 3 (Mus musculus) (UniProt Q8BUN5)", "test": "Inhibition of SMAD3 phosphorylation in mouse NIH3T3 cells preincubated with compound for 1 hrs followed by TGF-beta1 stimulation by Western blot analysis", "type": "cell-based", "conditions": "dose 0.05-2 µM"}},
  "note": "Activity calls are given as the source filed them. The calls are words filed in the database; no cut-off is given here.",
  "data": [
    {"smiles": "CC(C)(C)OC(=O)N1CCC(Cn2ncc3c(N)ncnc32)CC1", "values": [
      {"measurement": "inhibition", "setting": "[1]", "value": 70, "unit": "%"}
    ]},
    {"smiles": "Nc1ccn([C@@H]2O[C@H](CO)[C@@H](O)C2(F)F)c(=O)n1", "note": "[GEMCITABINE]", "values": [
      {"measurement": "Activity", "setting": "PANC-1", "value": "Active"},
      {"measurement": "Activity", "setting": "Panc02", "value": "Active"}
    ]},
    {"smiles": "CC(=O)N1CCC(CCn2nc(-c3ccc4[nH]cc(C)c4c3)c3c(N)ncnc32)CC1", "values": [
      {"measurement": "inhibition", "setting": "[2]", "value": "Dose-Dependent Effect"}
    ]},
    {"smiles": "CC(=O)N1CCN(Cc2cccc(-c3ccc4[nH]ccc4c3)c2)CC1", "values": [
      {"measurement": "inhibition", "setting": "[1]", "value": 52, "unit": "%"}
    ]},
    {"smiles": "c1ccc2ncc(-c3ccc4[nH]ccc4c3)cc2c1", "values": [
      {"measurement": "inhibition", "setting": "[1]", "value": 49, "unit": "%"}
    ]}
  ]
}
